This data set concerns breast cancer cells. The settings on record: mice with breast cancer cells on the legs, γ-camera image after intravenous injection, panel or time point not given.

“And” between values parts separate entries of the source, which are not always exact repeats. Identical values can stand only once. Like-named read-outs stand apart in the source and are kept apart here.

Regarding “^99mTc L-aspartic acid [reference compound]”, the T/M (FIG. 13) was 2.2 and 1.5.

As for “^99mTc L-aspartic acid-methyl-nitroimidazole”, the T/M runs as follows: (FIG. 12) 4.3 and 3.7; (FIG. 13) 4.3 and 4.1.

(Values after patent publication US20110206604A1, “NITROIMIDAZOLE-AMINO ACID HYPOXIA CONTRAST MEDIUM, PREPARATION METHOD AND USE THEREOF” (priority 2008, published 2011).)
